Laboratory results: PubChem BioAssay AID651718 (The Scripps Research Institute Molecular Screening Center, 2012)
This is a selection; strong and weak results do not stand in their true shares. Some results for these compounds are left out of this collection, so the calls shown say nothing about other tests. Active and inactive are the calls of the source. Rule as the data show it: active = inhibition above about 4.5%; inactive = the rest.

What follows are compounds tested on Methionine sulfoxide reductase A (Bos taurus) (assay: inhibition of methionine sulfoxide reductase A – biochemical, absorbance, bovine, HTS, primary screen (AID 651718;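 also: 0% = vehicle wells with enzyme and 100% = reference inhibitor wells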)). Settings: purified bovine MsrA, absorbance read-out; at 15.5 µM; active compounds read high.
With `C=C(C)C#CC(O)(C(=O)OC1CCN(C)CC1)c1ccccc1` (stereo unspecified) the inhibition was inactive: 0.04%.
`COc1ccc(Br)c(C(=O)NCC2(N3CCCCC3)CCCCC2)c1` was tested, and the inhibition was inactive: 0.75%.
With `CC(C)Oc1ccc(C(=O)NCC2(N(C)C)CCCCC2)cc1` the inhibition was inactive: 0.44%.
In the case of `O=C(OCCN1CCCC1)C(O)(c1ccccc1)c1ccccc1`, the inhibition was inactive: -0.04%.
In the case of `CN(C)c1cccc(C(=O)NCC2(N(C)C)CCCCC2)c1`, the inhibition was inactive: 0.78%.
With `O=C(OC1CN2CCC1CC2)C(CO)(c1ccccc1)c1ccccc1` (stereo unspecified) the inhibition was inactive: -0.44%.
In the case of `COc1cccc(C(=O)NCC2(N3CCCCC3)CCCCC2)c1`, the inhibition was inactive: 0.24%.
For `COc1ccc(Cl)cc1C(=O)NCC1(N(C)C)CCCCC1`, the inhibition was inactive: 0.73%.
`O=C(NCC1(N2CCCCC2)CCCCC1)c1cccc(Cl)c1` was tested, and the inhibition was inactive: 1.17%.
In the case of `CN(C)C1(CNC(=O)c2ccc(Br)cc2)CCCCC1`, the inhibition was inactive: 0.49%.
In the case of `COc1cc(C(=O)NCC2(N(C)C)CCCCC2)c([N+](=O)[O-])cc1OC`, the inhibition was inactive: 2.01%.
With `C=CCN1CCN(CCOC(=O)C(O)(c2ccccc2)c2ccccc2)CC1` the inhibition was inactive: -0.45%.
In the case of `O=C(NCC1(N2CCCCC2)CCCCC1)c1cc(F)c(F)cc1Cl`, the inhibition was inactive: -0.96%.
For `COc1ccc(C(=O)NCC2(N(C)C)CCCCC2)cc1`, the inhibition was inactive: -1.38%.
With `Cc1cc(C(=O)NCC2(N3CCCCC3)CCCCC2)ccc1[N+](=O)[O-]` the inhibition was inactive: -1.16%.
For `CCN1CCCC(OC(=O)C2(O)c3ccccc3C=Cc3ccccc32)C1` (stereo unspecified), the inhibition was inactive: -0.22%.
In the case of `O=C(NCC1(N2CCCCC2)CCCCC1)c1cccc(Br)c1`, the inhibition was inactive: -0.93%.
With `Cc1ccccc1C(=O)NCC1(N2CCCCC2)CCCCC1` the inhibition was inactive: -1.1%.
In the case of `CN(C)C1CCCC1OC(=O)C(O)(c1ccccc1)c1ccccc1` (stereo unspecified), the inhibition was inactive: 0.29%.
With `CN(C)c1ccc(C(=O)NCC2(N(C)C)CCCCC2)cc1` the inhibition was inactive: 1.51%.
`CCN(CC)CC(C)C(C)OC(=O)C(O)(c1ccccc1)c1ccccc1` (stereo unspecified) was tested, and the inhibition was inactive: -0.77%.
In the case of `COc1cc(SC)ccc1C(=O)NCC1(N(C)C)CCCCC1`, the inhibition was inactive: 0.55%.
For `CC(C)N1C(=O)CC2(CCN(CCOC(=O)C(O)(c3ccccc3)c3ccccc3)CC2)C1=O`, the inhibition was inactive: 1.81%.
In the case of `Cc1ccc(C(=O)NCC2(N3CCCCC3)CCCCC2)cc1`, the inhibition was inactive: -0.61%.
With `O=C(NCC1(N2CCCCC2)CCCCC1)c1cc([N+](=O)[O-])ccc1Cl` the inhibition was inactive: -1.37%.
For `CN1[C@@H]2CC[C@H]1CC(OC(=O)C(O)(c1ccccc1)c1ccccc1)C2` (stereo partly specified), the inhibition was inactive: -1.89%.
